The source of these data is US20140377240A1, “METHODS AND COMPOSITIONS FOR EXPANDING IMMUNOSUPPRESSIVE T REGULATORY CELLS IN VITRO AND USES THEREOF” (Northeastern University, priority 2012, published 2014).

The test system of this assay is Mouse natural Treg cells. Kind of assay: Treg cell proliferation in 3-day culture with anti-CD3/anti-CD28 and IL-2. In kind it is cell-based. The following applies: IL-2 at 5-100 U/ml, 3 days, 1% or 21% O2. The text has this:
Mouse natural Treg cells were isolated from the spleen and lymph nodes according to methods known in the art. Briefly, the methods were based on using monoclonal antibodies against cell surface proteins which are predominantly expressed on Treg cells. Using fluorochrome-conjugated antibodies, Treg cells were labeled and isolated by magnetic cell sorting. The cells were labeled with anti-HSA (CD24) and anti-CD8 mAbs using methods known in the art, and CD24+ and CD8− cells were depleted using magnetically assisted cell sorting (“MACS”) to enrich for CD4+ cells. CD25+ cells were further purified from this fraction by positive selection. The purity of CD4+CD25+ cells was >93%, with greater than 95% of cells CD4+CD25+FoxP3+.
Purified CD4+CD25+ cells (1×10^5 cells/well) were stimulated with immobilized anti-CD3 and anti-CD28 mAbs and cultured under 1% or 21% O2 for 3 days. Culture media: RPMI1640 (Invitrogen) supplemented with 10% fetal calf serum (Hyclone); culturing condition: 37° C., 5% CO2 using a NAPCO7000 incubator capable of controlling oxygen concentration; humidity: >95%, cell density: 5×10^5 cells/ml. Normoxic cell culture conditions were 5% C O2, 95% air (21% oxygen). For hypoxic culture conditions, ambient air was diluted with pure nitrogen to reduce the O2 concentration to 1%. Human recombinant IL-2 was added to the culture at 5-100 U/ml for the entire culture period.

On to “IL-2: Human recombinant IL-2 added to the culture at 5-100 U/ml”, for which the Treg cell proliferation entry is “dependent on the dose of IL-2”.
